# Assay results published in EP1277738B1, “CONDENSED HETEROARYL DERIVATIVES” (Astellas Pharma Inc., priority 2000, dated 2001).
# Test system: A375 cells
# Assay: Melanoma cell growth inhibition (Alamar Blue)
# Assay type: cell-based
# Conditions: Homo sapiens, A-375, 46 h
# Experimental: A375 cells from a melanoma cell line were cultured in DMEM medium (GIBCO) supplemented with 10% fetal bovine serum. A375 cells at 10,000 cells/100µl were added to a 96 well plate which contained 1µl/well of the test compounds (final concentration of 0.001 - 30µM). After incubation for over 46 hours, Alamar Blue reagent was added to the medium (10µl/well).
compound,measurement,value
"Nc1ccc(C(=O)Nc2cccc(-c3nc(N4CCOCC4)c4oc5ncccc5c4n3)c2)cn1 [Co 17, 6-amino-3'-.(4-morpholinopyrido[3',2':4,5]furo[3,2-d]pyrimidin-2-yl)nicotinanilide]",IC50,330 to 4260 nM
